Experimental data taken from patent US9499599B2, “Composition and methods for stimulating gastrointestinal motility” (Ipsen Pharma S.A.S., priority 2005, dated 2016).
Like-named read-outs stand apart in the source and are kept apart here.

The chains behind the UniProt entries cited, without tags or fusion partners.
UniProt Q92847, whole entry: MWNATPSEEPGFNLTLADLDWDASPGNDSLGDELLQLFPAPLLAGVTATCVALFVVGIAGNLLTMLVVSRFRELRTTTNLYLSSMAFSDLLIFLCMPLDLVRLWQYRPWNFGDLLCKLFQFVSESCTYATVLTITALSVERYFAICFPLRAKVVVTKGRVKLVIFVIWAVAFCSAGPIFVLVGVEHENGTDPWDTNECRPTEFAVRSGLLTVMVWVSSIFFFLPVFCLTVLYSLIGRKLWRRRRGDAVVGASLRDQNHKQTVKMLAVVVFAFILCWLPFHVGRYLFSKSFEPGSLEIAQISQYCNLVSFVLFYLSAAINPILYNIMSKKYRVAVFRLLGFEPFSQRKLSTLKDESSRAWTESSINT

Molecular target: T1, human recombinant GHS receptor (Homo sapiens, UniProt Q92847)
T1 construct: The full length human GHS-R was subcloned into the mammalian expression vector pcDNA 3.1; expressed in transfected cells; membrane homogenates used
Experiment: GHS-receptor binding assay, (125I)ghrelin displacement

[1] = 0.05 nM (125I)ghrelin, membranes of CHO-K1 cells expressing human recombinant GHS receptor, 60 min at 4° C.; read-out: Receptor Binding Ki

Substance | Ki [1] | Ki (read-out: Receptor Binding Ki; 0.05 nM (125I)ghrelin, membranes of CHO-K1 cells expressing human recombinant GHS receptor, 60 min at 4° C.)
H-Inp-D-1-Nal-D-Trp-Taz-Apc-NH2 [Example #60] | 1.19 nM | –
(Act^2)hGhrelin(1-28)-NH2 [Example #94] | 12.7 nM | –
H-Inp-D-2-Nal-D-Trp-Taz-NH2 [Example #90] | 6.17 nM | –
Aib^2, Act^6)hGhrelin(1-28)-NH2 [Example #114] | – | 155 nM
H-Inp-D-1-Nal-D-Trp-Taz-Lys-NH2 [Example #57] | 1.11 nM | –
